Only a part is listed here, and it is no random draw. Some salts or complexes appear as unconnected parts, following the source record. Activity calls are given as the source filed them.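 How the source made its calls: active means inhibition above the campaign's mean inhibition across all tested compounds plus 3 SD (cut at about 9.5% in these data); inactive means the rest.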
Molecular target: Serine/threonine-protein phosphatase 5 (Homo sapiens) (UniProt P53041)
Assay: inhibition of human PP5 catalytic activity – biochemical, fluorescence, primary screen (AID 1987);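 further: 0% = DMSO only and 100% = 100 µM cantharidin control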
Details: purified PP5c, OMFP substrate fluorescence; at 6.7 µM; hits give high values

The chains behind the UniProt entries cited, without tags or fusion partners.
UniProt P53041, whole entry: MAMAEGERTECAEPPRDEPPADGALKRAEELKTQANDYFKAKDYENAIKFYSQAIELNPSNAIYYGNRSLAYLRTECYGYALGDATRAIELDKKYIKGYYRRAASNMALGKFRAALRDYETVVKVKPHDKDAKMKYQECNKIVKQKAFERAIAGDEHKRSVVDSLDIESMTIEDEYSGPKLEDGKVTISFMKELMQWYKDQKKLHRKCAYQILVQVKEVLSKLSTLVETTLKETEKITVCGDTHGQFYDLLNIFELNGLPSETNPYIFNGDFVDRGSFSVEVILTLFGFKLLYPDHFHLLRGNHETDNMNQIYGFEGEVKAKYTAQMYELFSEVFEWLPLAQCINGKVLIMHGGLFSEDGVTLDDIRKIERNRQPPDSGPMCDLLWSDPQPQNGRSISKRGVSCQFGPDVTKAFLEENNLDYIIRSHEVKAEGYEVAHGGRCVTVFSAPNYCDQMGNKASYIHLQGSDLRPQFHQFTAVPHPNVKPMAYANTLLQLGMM

Structure (SMILES)	inhibition
COc1ccccc1OP(C)(=O)Nc1ccccc1Br (stereo not drawn)	inactive: 0.26%
CC(C)(C)c1ccc(OP(C)(=O)O)cc1	inactive: -0.59%
CP(=O)(Nc1ccc(Cl)cc1)Oc1ccc(F)cc1 (stereo not drawn)	inactive: -0.78%
CN(C)C(=O)c1c([N+](=O)[O-])cc([N+](=O)[O-])cc1[N+](=O)[O-]	inactive: -2.28%
CCN(CC)CC(O)COC(=O)C(O)(c1ccccc1)C1CCCCC1 (stereo not drawn)	inactive: 2.65%
COc1ccc(OP(C)(=O)Nc2ccc(Br)cc2)cc1 (stereo not drawn)	inactive: 0.05%
COc1ccccc1OP(C)(=O)Nc1c(C)n(C)n(-c2ccccc2)c1=O (stereo not drawn)	inactive: 2.82%
O=C(OCCCN1CCCC1)C(O)(c1ccccc1)C1CCCCC1 (stereo not drawn)	inactive: -0.68%
CP(=O)(Oc1ccccc1)N1CCOC1=O (stereo not drawn)	inactive: -0.03%
CCc1ccc(OP(C)(=O)Nc2cccnc2)cc1 (stereo not drawn)	inactive: -1.38%
Nc1ccc2c(ccc3cccnc32)n1.O=[N+]([O-])c1cc([N+](=O)[O-])c(O)c([N+](=O)[O-])c1	inactive: -0.59%
CCOC(=O)c1ccc(NP(C)(=O)Oc2ccc(Cl)cc2)cc1 (stereo not drawn)	inactive: 4.97%
CP(=O)(OC12CC3CC(CC(C3)C1)C2)OC12CC3CC(CC(C3)C1)C2	inactive: 0.7%
Cc1nc2ccc3ccccc3c2o1.O=[N+]([O-])c1cc([N+](=O)[O-])c(O)c([N+](=O)[O-])c1	inactive: 1.11%
CP(=O)(Nc1ccc(Cl)cc1Cl)Oc1ccccc1 (stereo not drawn)	inactive: -1.59%
CP(=O)(OCCOc1ccccc1)OCCOc1ccccc1	inactive: 0.82%
Cc1cc(C)cc(OP(C)(=O)Nc2cccc(C(F)(F)F)c2)c1 (stereo not drawn)	inactive: 1.15%
COc1ccccc1OP(C)(=O)Nc1ccc(C)c(C)c1 (stereo not drawn)	inactive: 2.95%
COc1ccc(OP(C)(=O)Nc2ccccc2Br)cc1 (stereo not drawn)	inactive: 1.42%
Cc1c(NP(C)(=O)Oc2ccc(C(C)C)cc2)c(=O)n(-c2ccccc2)n1C (stereo not drawn)	inactive: 0.82%
O=[N+]([O-])c1cc([N+](=O)[O-])c(Nc2ccccn2)c([N+](=O)[O-])c1	inactive: 1.48%
CP(=O)(Nc1ccccn1)Oc1ccccc1 (stereo not drawn)	inactive: -1.01%

Structure (SMILES)	inhibition
COc1ccccc1OP(C)(=O)Nc1ccc(C)cc1C (stereo not drawn)	inactive: 2.28%
CCc1ccc(OP(C)(=O)O)cc1	inactive: -1.35%
COc1ccccc1OP(C)(=O)Nc1ccc(Br)cc1 (stereo not drawn)	inactive: 1.25%
COc1ccc(OP(C)(=O)Nc2ccccn2)cc1 (stereo not drawn)	inactive: 0.48%
CN(C)CCOC(=O)C(O)(c1ccccc1)C1CCCC1 (stereo not drawn)	inactive: 1.71%
O=C(OC1CN2CCC1CC2)c1ccc([N+](=O)[O-])cc1 (stereo not drawn)	inactive: -0.85%
O=C(OCCN1CCN(CCOCc2ccccc2)CC1)C(O)(c1ccccc1)c1ccccc1	inactive: 2.37%
COc1ccc2c(c1O)-c1c(O)c(OC)cc3c1[C@H](C2)[N+](C)(C)CC3.O=[N+]([O-])c1cc([N+](=O)[O-])c([O-])c([N+](=O)[O-])c1[O-]	inactive: 0%
CP(=O)(Nc1ccccc1F)Oc1ccccc1 (stereo not drawn)	inactive: 0.06%
CC(C)c1ccc(OP(C)(=O)Nc2ccc(SC(F)(F)F)cc2)cc1 (stereo not drawn)	inactive: 5.83%
CCN(CC)CCCOC(=O)C(O)(c1ccccc1)C1CCCCC1 (stereo not drawn)	inactive: -0.68%
CP(=O)(Nc1ccccc1)Oc1ccc(F)cc1 (stereo not drawn)	inactive: 2.04%
O=[N+]([O-])c1cc([N+](=O)[O-])c(OC2CCCCC2O)c([N+](=O)[O-])c1 (stereo not drawn)	inactive: 0.71%
CCCCCOc1ccc(NP(C)(=O)Oc2ccc(Cl)cc2Cl)cc1 (stereo not drawn)	inactive: 5.31%
CCOC(=O)c1ccc(NP(C)(=O)Oc2ccc(F)cc2)cc1 (stereo not drawn)	inactive: -0.79%
COc1ccc(OP(C)(=O)Nc2ccc(SC(F)(F)F)cc2)cc1 (stereo not drawn)	inactive: 2.13%
O=[N+]([O-])c1cc([N+](=O)[O-])c(NCC2CCS(=O)(=O)C2)c([N+](=O)[O-])c1 (stereo not drawn)	inactive: -0.44%
COc1ccc(OP(C)(=O)Nc2cccc(Br)c2)cc1 (stereo not drawn)	inactive: 1.49%
CN(C)CCOC(=O)C(O)(c1ccccc1)C1CCCCC1 (stereo not drawn)	inactive: 0.91%
COc1ccc(NP(C)(=O)Oc2ccccc2OC)cc1 (stereo not drawn)	inactive: -0.47%
CP(=O)(Nc1ccc2c(c1)OCCO2)Oc1ccccc1 (stereo not drawn)	inactive: -2.4%
Cc1ccccc1NP(C)(=O)Nc1ccccc1C	inactive: 2.16%

Structure (SMILES)	inhibition
CP(=O)(Nc1ccc(SC(F)(F)F)cc1)Oc1ccc(F)cc1 (stereo not drawn)	inactive: 5.12%
CCOP(C)(=S)SCC(=O)NC(C)(CC)C(=O)O (stereo not drawn)	inactive: -1.42%
O=[N+]([O-])c1cc([N+](=O)[O-])c(-c2cnn(-c3ccccc3)c2)c([N+](=O)[O-])c1	inactive: 2.82%
Cc1nc2ccc3ccccc3c2s1.O=[N+]([O-])c1cc([N+](=O)[O-])c(O)c([N+](=O)[O-])c1	inactive: 0.83%
O=[N+]([O-])c1cc([N+](=O)[O-])c(-n2nnc3ccccc32)c([N+](=O)[O-])c1	inactive: -1.49%
CN1CCCCC1COC(=O)C1(O)c2ccccc2CCc2ccccc21 (stereo not drawn)	inactive: 1.58%
COc1ccccc1OP(C)(=O)Nc1c(C)cccc1C (stereo not drawn)	inactive: 0.8%
CCCOc1ccc(NP(C)(=O)Oc2ccc(Cl)cc2)cc1 (stereo not drawn)	inactive: 2.94%
CP(=O)(Nc1ccc(SC(F)(F)F)cc1)Oc1ccccc1 (stereo not drawn)	inactive: 2.89%
CC1=C2N=C(C=C3N=C(C(C)=C4[N-][C@@](C)([C@@H]5N=C1[C@](C)(CCC(=O)NC[C@@H](C)OP(=O)([O-])O[C@H]1[C@@H](O)[C@@H](n6cnc7cc(C)c(C)cc76)O[C@@H]1CO)[C@H]5CC(N)=O)[C@@](C)(CC(N)=O)[C@@H]4CCC(N)=O)[C@@](C)(CC(N)=O)[C@@H]3CCC(N)=O)C(C)(C)[C@@H]2CCC(N)=O.[C-]#N.[Co+3]	inactive: 1.24%
O=[N+]([O-])c1cc([N+](=O)[O-])c(Nc2nnnn2CCO)c([N+](=O)[O-])c1	inactive: 2.34%
CCOC(=O)C(CC)C1=NC(C)(C)Cc2ccccc21.O=[N+]([O-])c1cc([N+](=O)[O-])c(O)c([N+](=O)[O-])c1 (stereo not drawn)	inactive: -2.13%
CC1=NCCc2c1[nH]c1ccccc21.O=[N+]([O-])c1cc([N+](=O)[O-])c(O)c([N+](=O)[O-])c1	inactive: -1.8%
O=C(O)c1cccc(Nc2c([N+](=O)[O-])cc([N+](=O)[O-])cc2[N+](=O)[O-])c1	inactive: 0.06%
Cc1ccc(C)c(NP(C)(=O)Oc2ccccc2)c1 (stereo not drawn)	inactive: -1.49%
Cc1cc(C)cc(OP(C)(=O)Nc2ccccn2)c1 (stereo not drawn)	inactive: 1.32%
CP(=O)(Nc1cccc(Br)c1)Oc1ccccc1 (stereo not drawn)	inactive: -1.67%
COc1ccccc1OP(C)(=O)Nc1cccc(Br)c1 (stereo not drawn)	inactive: -1.15%
CCOC(=O)c1ccc(NP(C)(=O)Oc2cc(C)cc(C)c2)cc1 (stereo not drawn)	inactive: 3.22%
Cc1cc(C)cc(OP(C)(=O)Nc2ccc(C)cc2C)c1 (stereo not drawn)	inactive: 0.54%
CCN(CC)CCCOC(=O)C(O)(c1ccccc1)c1ccccc1	inactive: 1.23%
COc1ccccc1OP(C)(=O)Nc1ccc(C)cc1 (stereo not drawn)	inactive: 0.7%

Structure (SMILES)	inhibition
Cc1ccc(NP(C)(=O)Oc2ccccc2)c(C)c1 (stereo not drawn)	inactive: 1.36%
CCOC(=O)c1ccc(NP(C)(=O)Oc2ccccc2)cc1 (stereo not drawn)	inactive: 4.1%
Cc1cc(C)cc(OP(C)(N)=O)c1 (stereo not drawn)	active: 10.9%
COc1ccccc1OP(C)(=O)Nc1cc(Cl)ccc1C (stereo not drawn)	inactive: 1.75%
COc1ccc(OP(C)(=O)Nc2cccc(F)c2)cc1 (stereo not drawn)	inactive: 0.39%
O=[N+]([O-])c1cc([N+](=O)[O-])c(Nc2cccnc2)c([N+](=O)[O-])c1	inactive: 1.27%
O=[N+]([O-])c1ccc2c(c1)C=Nc1ccccc1O2	inactive: 0.77%
CC(C)(C)c1ccc(OP(C)(=O)Nc2ccc(SC(F)(F)F)cc2)cc1 (stereo not drawn)	inactive: 8.02%
Cc1cccc(C)c1OP(C)(N)=O (stereo not drawn)	inactive: -2.14%
CP(=S)(Nn1cnnc1)Oc1ccccc1 (stereo not drawn)	inactive: 0.24%
CP(=O)(Nc1ccccc1Br)Oc1ccccc1 (stereo not drawn)	inactive: 1.45%
COc1ccccc1OP(C)(=O)Nc1ccccc1 (stereo not drawn)	inactive: 0.47%
O=[N+]([O-])c1cc([N+](=O)[O-])c(O)c([N+](=O)[O-])c1.c1ccc(Oc2ccncc2)cc1	inactive: 2.7%
CCOC(=O)c1ccc(NP(C)(=O)Oc2ccc(OC)cc2)cc1 (stereo not drawn)	inactive: -0.04%
CCOP(C)(=S)SCC(=O)NC(C)C(=O)O (stereo not drawn)	inactive: 0.98%
CP(=O)(Nc1ccccn1)Oc1ccc(Cl)cc1 (stereo not drawn)	inactive: 2.69%
CP(=O)(Nc1ccc(SC(F)(F)F)cc1)Oc1ccc(Cl)cc1 (stereo not drawn)	inactive: 7.04%
Cc1cccc(C)c1OP(C)(=O)Nc1ccc(SC(F)(F)F)cc1 (stereo not drawn)	inactive: 5.95%
CP(=O)(Oc1ccccc1)OC(c1ccccc1)C(F)(F)F (stereo not drawn)	inactive: 0.15%
CP(=O)(NC(=O)Nc1ccccc1)Oc1ccccc1 (stereo not drawn)	inactive: 1.96%
CCc1ccc(OP(C)(=O)N2CCN(c3ccc([N+](=O)[O-])cc3)CC2)cc1 (stereo not drawn)	inactive: 5.14%
Cc1cc(C)cc(OP(C)(=O)Nc2ccc(SC(F)(F)F)cc2)c1 (stereo not drawn)	inactive: 8.27%

From PubChem BioAssay AID1987 (The Scripps Research Institute Molecular Screening Center, 2009)
